Experimental data published in PubChem BioAssay AID2012 (Sanford-Burnham Center for Chemical Genomics, 2009).
The list shows a part of the results, in another mix than the full data. The source made the active and inactive calls. The rule behind the calls is not given here.

target: Eukaryotic translation initiation factor 4H (Homo sapiens) (UniProt Q15056); assay: human eIF4H binding inhibitors, primary screen, translation initiation inhibitor project, biochemical, uHTS, fluorescence polarization (AID 2012); details: eIF4H fluorescence polarization binding assay; at 35 µM; hits give high values;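 note: calls also rest on retests at 20 µM and on dose response follow-up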

Structure (SMILES)	inhibition
CC(=O)NC(SC(=S)N(C)C)C(Cl)(Cl)Cl (stereo unspecified)	active: -0.7%
C[N+]1=C2C=CC=CC=C2SC12C([N+](=O)[O-])=CC([N+](=O)[O-])=C[C-]2[N+](=O)[O-] (stereo unspecified)	active: 91.9%
O=[N+]([O-])c1cc([N+](=O)[O-])c(CCN2CCOCC2)c([N+](=O)[O-])c1	active: 95.2%
O=[N+]([O-])c1cc([N+](=O)[O-])c(-c2ccn[nH]2)s1	active: 88.2%
CCOC(=O)Nc1ccc([As](=O)(O)O)c(O)c1	active: 57.8%
CS(=O)(=O)c1cc([N+](=O)[O-])c2no[n+]([O-])c2c1	active: 69.9%
